Assay results reported in article PMC5132270 (Cancer Science, 2016).

Assays:
[1] = system: ALK inhibitor‐naïve, ALK+ NSCLC; conditions: Japanese patients, J‐ALEX; cited from earlier work
ALK+ NSCLC [2] = assay: Efficacy: tumor response; format: in vivo, human
ALK+ NSCLC [3] = conditions: NP28673, patients who failed on crizotinib, different dose; cited from earlier work
ALK+ NSCLC [4] = conditions: cited from earlier work
ALK+ NSCLC [5] = conditions: NP28761, patients who failed on crizotinib, different dose; cited from earlier work
patients with ALK+ NSCLC = assay: Safety: treatment‐related adverse events, NCI‐CTCAE v4.03; format: in vivo, human
advanced ALK+ NSCLC = conditions: phase I study; cited from earlier work
[6] = FAS response‐evaluable population (n = 30)
[7] = ALK inhibitor‐naïve patients, 300 mg twice daily

**Q.** What does the source list for `CCc1cc2c(cc1N1CCC(N3CCOCC3)CC1)C(C)(C)c1[nH]c3cc(C#N)ccc3c1C2=O` [alectinib]?
**A.** PFS with alectinib vs crizotinib [1]: superior PFS; duration of response, range (ALK+ NSCLC [2]; FAS or crizotinib‐failure populations): 2.5–14.1 months; median duration of response (ALK+ NSCLC [2]; FAS population): not estimable; DCR (ALK+ NSCLC [2]; [6]): 83.3%; Median time to response (ALK+ NSCLC [2]; [6]): 1.2 months; median duration of response (ALK+ NSCLC [2]; crizotinib‐failure population): not estimable; Median PFS (ALK+ NSCLC [2]; crizotinib‐failure population (n = 23), 95% CI 3.9−not reached): 12.9 months; Median time to response (ALK+ NSCLC [2]; crizotinib‐failure response‐evaluable population (n = 20)): 1.2 months; Median PFS (ALK+ NSCLC [2]; full analysis set (n = 35), 95% CI 11.1−not reached): 13.9 months; PFS events (ALK+ NSCLC [2]; patients who had discontinued crizotinib for reasons other than PD): no events occurred; Patients with a PFS event (ALK+ NSCLC [2]; patients who had experienced PD with crizotinib): 14 patients; DCR (ALK+ NSCLC [3]): 78.7%; ORR (ALK+ NSCLC [3]): 50.0%; patients achieving an objective response (ALK+ NSCLC [4]; [7]): > 90%; patients achieving an objective response, number/total (ALK+ NSCLC [4]; [7]): 43/46; 2‐year PFS rate (ALK+ NSCLC [4]; follow‐up): 76%; patients with complete response (CR) (ALK+ NSCLC [4]; follow‐up): 19.6%; DCR (ALK+ NSCLC [5]): 79.7%; ORR (ALK+ NSCLC [5]): 47.8%; Tolerability (patients with ALK+ NSCLC; 300 mg twice daily, ALK+ NSCLC patients): well tolerated; AST increased, treatment‐related, all grade (patients with ALK+ NSCLC; crizotinib failure (n = 23)): 4.3%; AST increased, treatment‐related, all grade, number of patients (patients with ALK+ NSCLC; crizotinib failure (n = 23)): 1; Blood bilirubin increased, treatment‐related, all grade (patients with ALK+ NSCLC; crizotinib failure (n = 23)): 8.7%; Blood bilirubin increased, treatment‐related, all grade, number of patients (patients with ALK+ NSCLC; crizotinib failure (n = 23)): 2; Constipation, treatment‐related, all grade (patients with ALK+ NSCLC; crizotinib failure (n = 23)): 30.4%; Constipation, treatment‐related, all grade, number of patients (patients with ALK+ NSCLC; crizotinib failure (n = 23)): 7; Dysgeusia, treatment‐related, all grade (patients with ALK+ NSCLC; crizotinib failure (n = 23)): 30.4%; Dysgeusia, treatment‐related, all grade, number of patients (patients with ALK+ NSCLC; crizotinib failure (n = 23)): 7; Neutrophil count decreased, treatment‐related, all grade (patients with ALK+ NSCLC; crizotinib failure (n = 23)): 17.4%; Neutrophil count decreased, treatment‐related, all grade, number of patients (patients with ALK+ NSCLC; crizotinib failure (n = 23)): 4; Rash, treatment‐related, all grade (patients with ALK+ NSCLC; crizotinib failure (n = 23)): 13.0%; Rash, treatment‐related, all grade, number of patients (patients with ALK+ NSCLC; crizotinib failure (n = 23)): 3; Vomiting, treatment‐related, all grade (patients with ALK+ NSCLC; crizotinib failure (n = 23)): 13.0%; Vomiting, treatment‐related, all grade, number of patients (patients with ALK+ NSCLC; crizotinib failure (n = 23)): 3; WBC count decreased, treatment‐related, all grade (patients with ALK+ NSCLC; crizotinib failure (n = 23)): 21.7%; WBC count decreased, treatment‐related, all grade, number of patients (patients with ALK+ NSCLC; crizotinib failure (n = 23)): 5; Patients with alectinib discontinued due to AE (patients with ALK+ NSCLC; safety population): 5.7%; Patients with alectinib interrupted due to AE (patients with ALK+ NSCLC; safety population): 20%; Treatment‐related nausea (patients with ALK+ NSCLC; safety population): 8.6%; AST increased, treatment‐related, all grade (patients with ALK+ NSCLC; safety population (n = 35)): 14.3%; AST increased, treatment‐related, all grade, number of patients (patients with ALK+ NSCLC; safety population (n = 35)): 5; Blood bilirubin increased, treatment‐related, all grade (patients with ALK+ NSCLC; safety population (n = 35)): 14.3%; Blood bilirubin increased, treatment‐related, all grade, number of patients (patients with ALK+ NSCLC; safety population (n = 35)): 5; Constipation, treatment‐related, all grade (patients with ALK+ NSCLC; safety population (n = 35)): 31.4%; Constipation, treatment‐related, all grade, number of patients (patients with ALK+ NSCLC; safety population (n = 35)): 11; Dysgeusia, treatment‐related, all grade (patients with ALK+ NSCLC; safety population (n = 35)): 25.7%; Dysgeusia, treatment‐related, all grade, number of patients (patients with ALK+ NSCLC; safety population (n = 35)): 9; Neutrophil count decreased, treatment‐related, all grade (patients with ALK+ NSCLC; safety population (n = 35)): 22.9%; Neutrophil count decreased, treatment‐related, all grade, number of patients (patients with ALK+ NSCLC; safety population (n = 35)): 8; Rash, treatment‐related, all grade (patients with ALK+ NSCLC; safety population (n = 35)): 14.3%; Rash, treatment‐related, all grade, number of patients (patients with ALK+ NSCLC; safety population (n = 35)): 5; Treatment‐related grade 4/5 adverse events (patients with ALK+ NSCLC; safety population (n = 35)): No treatment‐related grade 4/5 events occurred; also recorded: No treatment‐related grade 4/5 AE were reported; Vomiting, treatment‐related, all grade (patients with ALK+ NSCLC; safety population (n = 35)): 14.3%; Vomiting, treatment‐related, all grade, number of patients (patients with ALK+ NSCLC; safety population (n = 35)): 5; WBC count decreased, treatment‐related, all grade (patients with ALK+ NSCLC; safety population (n = 35)): 22.9%; WBC count decreased, treatment‐related, all grade, number of patients (patients with ALK+ NSCLC; safety population (n = 35)): 8; Treatment‐related grade 4/5 adverse events (patients with ALK+ NSCLC; safety population (n = 35), listed as Alectinib): no treatment‐related grade 4/5 AE

**Q.** With `C[C@@H](Oc1cc(-c2cnn(C3CCNCC3)c2)cnc1N)c1c(Cl)ccc(F)c1Cl` [crizotinib] as the compound, how does the “6‐month progression‐free survival (PFS) rate” value (advanced ALK+ NSCLC) read?
**A.** Its value is 72%.

**Q.** And the “overall response rate (ORR)” value (advanced ALK+ NSCLC)?
**A.** Its value is 57%.

“Also recorded” adds a separate entry of the source. Read-outs that look alike come from different tables or passages of the source.
